{"sequences": {"note": "Sequences of proteins named here, by UniProt entry; tags and fusion partners are left off. A change or cut given only in a name is not applied to a line headed by its entry.", "UniProt Q06187": "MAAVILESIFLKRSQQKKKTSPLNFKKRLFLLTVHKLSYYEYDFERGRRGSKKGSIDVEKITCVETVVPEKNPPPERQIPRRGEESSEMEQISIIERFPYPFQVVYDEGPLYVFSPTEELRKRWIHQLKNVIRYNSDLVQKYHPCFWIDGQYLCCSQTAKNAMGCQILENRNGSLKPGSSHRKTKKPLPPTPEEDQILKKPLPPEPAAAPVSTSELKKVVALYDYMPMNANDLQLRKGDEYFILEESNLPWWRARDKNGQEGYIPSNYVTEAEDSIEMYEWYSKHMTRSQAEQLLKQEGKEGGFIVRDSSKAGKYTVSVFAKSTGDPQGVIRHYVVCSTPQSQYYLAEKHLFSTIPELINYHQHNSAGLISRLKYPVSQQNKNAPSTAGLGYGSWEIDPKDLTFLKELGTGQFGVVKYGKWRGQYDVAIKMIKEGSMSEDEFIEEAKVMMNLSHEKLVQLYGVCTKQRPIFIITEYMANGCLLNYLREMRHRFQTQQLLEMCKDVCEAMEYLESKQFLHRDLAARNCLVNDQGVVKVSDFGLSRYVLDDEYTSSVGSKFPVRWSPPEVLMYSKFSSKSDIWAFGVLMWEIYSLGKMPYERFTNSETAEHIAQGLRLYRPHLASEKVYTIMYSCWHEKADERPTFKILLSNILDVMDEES"}, "source": "patent US11622965B2", "about": "“Methods for treating lymphoid malignancies” (ZHEJIANG DTRM BIOPHARMA CO. LTD., priority 2017, dated 2023)", "origin": "cited, not measured here", "target": "BTK (Homo sapiens, UniProt Q06187)", "conditions": "cited from earlier work", "data": [{"molecule": "C=CC(=O)N1CC[C@@H](n2nc(-c3ccc(Oc4c(F)c(F)cc(F)c4F)cc3F)c3c(N)ncnc32)C1", "note": "[Compound A, 1-((R)-3-(4-amino-3-(2-fluoro-4-(2,3,5,6-tetrafluorophenoxy)phenyl)-1H-pyrazolo[3,4-d]pyrimidin-1-yl)pyrrolidin-1-yl)prop-2-en-1-one]", "values": [{"measurement": "IC50", "result": 0.7, "unit": "nM"}]}]}
